Values of other authors, collected in patent US20190343190A1, “MATERIALS INCLUDING POLYMERIC FIBERS INCORPORATING MICROCAPSULES OR NANOCAPSULES INCLUDING AN ESSENTIAL OIL” (President and Fellows of Harvard College, priority 2016, published 2019).

Conditions: in vivo; cited from earlier work

C=Cc1ccccc1 [styrene]
Dose at which 50% of the population died: 0.2 mg per kilogram body weight per day
